# Apparent affinities of Ab-14 variants for a coronavirus HR2 peptide

Data: MIT Lincoln Laboratory AlphaSeq set, Engelhart et al. 2022, doi:10.1038/s41597-022-01779-4, as distributed in FLAb.

All variants were tested on one target, the spike HR2 peptide PDVDLGDISGINAS (SARS-CoV-2).

The variants keep the light chain, the linker and the frameworks of Ab-14 (scFv order VH, a 15-residue (Gly4Ser)3 linker, VL).
VH: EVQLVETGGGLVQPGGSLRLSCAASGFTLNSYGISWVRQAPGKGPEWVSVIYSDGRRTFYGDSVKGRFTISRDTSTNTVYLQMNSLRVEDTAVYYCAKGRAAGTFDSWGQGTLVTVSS
VL: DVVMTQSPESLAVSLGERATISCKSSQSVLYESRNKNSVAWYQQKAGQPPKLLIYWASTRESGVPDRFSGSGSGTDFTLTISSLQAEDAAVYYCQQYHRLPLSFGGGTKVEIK

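Library AAYL49 holds single substitutions and randomly drawn double and triple substitutions in the CDRs. The scFvs were displayed on barcoded MATa yeast, the peptide on MATalpha yeast. Pairs that bind mate more often; barcode pairs of the diploids are counted by sequencing. A regression on co-assayed BCL2-family reference pairs converts the normalised counts of each replicate to an apparent Kd. Mating was done three times.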

Each variant is given by its three heavy chain CDRs, as the data file delimits them; those of the parent are GFTLNSYGIS, VIYSDGRRTFYGDSVK, GRAAGTFDS. Affinities are written as log10 Kd with Kd in nM; a lower number is a better binder. "ND" marks a missing value. The strain was present, yet no cells mated with the target were sequenced in that replicate, which points to weak or no binding. Nonspecific signal, from three strains lacking the peptide, appeared in 15% of pairings of library AAYL49, centred on 4.06 (5% of these signals below 2.83); values are not corrected for it. Also given: how often the same scFv was detected with the empty control strains, with their mean in brackets.

{"CDR-H1": "GFTLNSYGIS", "CDR-H2": "VIYSFGRRTFNGDSVK", "CDR-H3": "GRAAGSFDS", "log10 Kd, replicates": "ND / ND / ND", "control signals": "2/9 (3.43)"}
{"CDR-H1": "GFTLNSYGIS", "CDR-H2": "VTYSDGRITFYGDSVK", "CDR-H3": "GRAAGTFDQ", "log10 Kd, replicates": "4.62 / 4.54 / ND", "control signals": "2/9 (3.95)"}
{"CDR-H1": "RFTYNSYGIS", "CDR-H2": "VIYSDSRRTFYGDSVK", "CDR-H3": "GRAAGTFDS", "log10 Kd, replicates": "ND / ND / ND", "control signals": "1/9 (3.48)"}
{"CDR-H1": "GDTLNSYGIS", "CDR-H2": "VIYCDGRRTFYGDSVK", "CDR-H3": "GRAAVTFDS", "log10 Kd, replicates": "6.07 / ND / 3.90", "control signals": "4/9 (4.26)"}
{"CDR-H1": "GFTLNSYGIS", "CDR-H2": "VNYSDGRRTFYGDSVK", "CDR-H3": "GRAAHTFQS", "log10 Kd, replicates": "4.28 / 3.27 / ND", "control signals": "2/9 (4.10)"}
{"CDR-H1": "GFTLGSYGIS", "CDR-H2": "VIYSDGRRTFYGDVVK", "CDR-H3": "GRAAGTCDS", "log10 Kd, replicates": "ND / ND / ND", "control signals": "0/9"}
{"CDR-H1": "GFTLVSYGGS", "CDR-H2": "VIYSDGRRTFYGDSVK", "CDR-H3": "GIAAGTFDS", "log10 Kd, replicates": "ND / 4.03 / ND", "control signals": "0/9"}
{"CDR-H1": "GFTLHPYGIS", "CDR-H2": "VIYSDGRRTFYGDDVK", "CDR-H3": "GRAAGTFDS", "log10 Kd, replicates": "4.34 / ND / ND", "control signals": "1/9 (3.00)"}
{"CDR-H1": "GFTLNSYGIS", "CDR-H2": "VIYSDVRQTFYGDSVK", "CDR-H3": "GRAAGTADS", "log10 Kd, replicates": "ND / ND / ND", "control signals": "0/9"}
{"CDR-H1": "GFTLNSYGII", "CDR-H2": "VIYSDGARTEYGDSVK", "CDR-H3": "GRAAGTFDS", "log10 Kd, replicates": "ND / 5.02 / ND", "control signals": "2/9 (4.30)"}
{"CDR-H1": "GFTLNSYGIS", "CDR-H2": "VIYKDGRRKFYGDSVK", "CDR-H3": "GFAAGTFDS", "log10 Kd, replicates": "4.63 / ND / ND", "control signals": "0/9"}
{"CDR-H1": "GFTLNSYGIS", "CDR-H2": "VIGSDGRRTFYGDSVK", "CDR-H3": "GRAAGPFDS", "log10 Kd, replicates": "ND / ND / ND", "control signals": "1/9 (3.35)"}
{"CDR-H1": "GFTLNSWGIS", "CDR-H2": "VIYSDGRRTFYGDSVK", "CDR-H3": "GRAMGTFGS", "log10 Kd, replicates": "ND / 3.46 / 5.49", "control signals": "4/9 (3.64)"}
{"CDR-H1": "GFTLNSYGIS", "CDR-H2": "VIYSDGNRTFYGMSVK", "CDR-H3": "GNAAGTFDS", "log10 Kd, replicates": "ND / 2.01 / ND", "control signals": "1/9 (2.69)"}
{"CDR-H1": "GFTLNSYGIS", "CDR-H2": "VIYSDGRRTFYGDSVH", "CDR-H3": "IHAAGTFDS", "log10 Kd, replicates": "ND / ND / 3.82", "control signals": "0/9"}
{"CDR-H1": "GFTLNSYGIS", "CDR-H2": "VIISDGRRTFPGDSVK", "CDR-H3": "GRAQGTFDS", "log10 Kd, replicates": "3.38 / ND / ND", "control signals": "2/9 (4.62)"}
{"CDR-H1": "GFTLRSYGIS", "CDR-H2": "VIYSWGRRTDYGDSVK", "CDR-H3": "GRAAGTFDS", "log10 Kd, replicates": "ND / ND / ND", "control signals": "3/9 (4.80)"}
{"CDR-H1": "GFTLNSVGIS", "CDR-H2": "VIYSDGRRTMTGDSVK", "CDR-H3": "GRAAGTFDS", "log10 Kd, replicates": "4.19 / 3.73 / ND", "control signals": "4/9 (3.95)"}
{"CDR-H1": "GFTLNSYGIS", "CDR-H2": "VIYSDGRRTFYGDSCK", "CDR-H3": "GRAWGTFYS", "log10 Kd, replicates": "4.21 / 5.82 / 4.19", "control signals": "7/9 (4.55)"}

The first 2 variants above that were never detected:

| CDR-H1 | CDR-H2 | CDR-H3 | log10 Kd, replicates | control signals |
|---|---|---|---|---|
| GFTLNSYGIS | VIYSFGRRTFNGDSVK | GRAAGSFDS | ND / ND / ND | 2/9 (3.43) |
| RFTYNSYGIS | VIYSDSRRTFYGDSVK | GRAAGTFDS | ND / ND / ND | 1/9 (3.48) |